Reference: patent publication US6417174B1, “Inhibitors of β-lactamases and uses therefor” (Northwestern University, priority 1997, dated 2002)

Sequences of proteins named here, by UniProt entry; tags and fusion partners are left off. Residues count along the entry.
UniProt P00811, 20-377 limits assumed: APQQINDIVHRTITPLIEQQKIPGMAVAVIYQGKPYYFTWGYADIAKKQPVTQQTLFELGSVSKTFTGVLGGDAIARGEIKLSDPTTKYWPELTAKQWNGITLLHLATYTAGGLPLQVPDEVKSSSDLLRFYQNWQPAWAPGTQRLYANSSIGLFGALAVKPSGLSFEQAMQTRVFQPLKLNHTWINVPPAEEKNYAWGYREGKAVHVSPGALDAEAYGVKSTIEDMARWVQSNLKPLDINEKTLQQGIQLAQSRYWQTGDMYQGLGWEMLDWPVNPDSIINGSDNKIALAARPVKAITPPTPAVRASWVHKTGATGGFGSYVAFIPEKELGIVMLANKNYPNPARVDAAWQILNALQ

Target: AmpC β-lactamase from E. coli (Escherichia coli, UniProt P00811)
Assay: Inhibition of AmpC β-lactamase, spectrophotometric assay (cephalothin substrate)
Assay type: biochemical
Details: read-out: Ki E. coli AmpC; pH 7

Compound | pKi
OB(O)c1ccc(F)cc1 | 5.21
COc1ccc(B(O)O)cc1 | 5.11

pKi: −log10 of the molar value.
